Among the data in patent US20230212120A1, “SMALL MOLECULE INHIBITORS OF GRK5 AND GRK5 SUBFAMILY MEMBERS AND USES THEREOF” (The Regents of the University of Michigan, priority 2020, published 2023) are IC50 values, retold here.

By UniProt entry, the sequences of proteins in these tests, tags left out.
UniProt P34947, whole entry, looked up: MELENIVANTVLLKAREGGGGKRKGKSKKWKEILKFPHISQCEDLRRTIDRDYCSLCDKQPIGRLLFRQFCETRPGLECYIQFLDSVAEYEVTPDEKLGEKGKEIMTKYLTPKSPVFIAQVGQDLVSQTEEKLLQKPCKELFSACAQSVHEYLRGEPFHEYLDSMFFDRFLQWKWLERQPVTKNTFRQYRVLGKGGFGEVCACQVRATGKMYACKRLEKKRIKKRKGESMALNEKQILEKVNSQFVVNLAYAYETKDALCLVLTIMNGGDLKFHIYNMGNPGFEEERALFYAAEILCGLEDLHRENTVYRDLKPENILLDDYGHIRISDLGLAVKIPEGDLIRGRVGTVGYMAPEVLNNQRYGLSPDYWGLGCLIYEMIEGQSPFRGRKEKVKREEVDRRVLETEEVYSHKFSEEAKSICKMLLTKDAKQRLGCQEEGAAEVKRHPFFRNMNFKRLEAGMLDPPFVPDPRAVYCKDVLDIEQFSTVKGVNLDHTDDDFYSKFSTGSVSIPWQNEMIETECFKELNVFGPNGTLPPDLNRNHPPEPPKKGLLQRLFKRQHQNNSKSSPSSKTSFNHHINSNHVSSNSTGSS

For this test, the target named is GRK5 (Homo sapiens, UniProt P34947). The test is described as follows: radiometric GRK5 inhibition assay (tubulin phosphorylation). To be noted: read-out: GRK5 IC50.

For `Cc1[nH]c(/C=C2\C(=O)Nc3ccc(C(=O)N[C@@H](c4ccccc4)C(C)C)cc32)c(C)c1NC(=O)CCl` [Compound 9r, (R,Z)-3-((4-(2-chloroacetamido)-3,5-dimethyl-1H-pyrrol-2-yl)methylene)-N-(2-methyl-1-phenylpropyl)-2-oxoindoline-5-carboxamide], the half-inhibitory concentration (IC50) (as a rule, the point on the concentration scale where inhibition reaches its midpoint) turned out to be 12 µM.
